US8551963B2, “Imidazolothiazole compounds and methods of use thereof” (Ambit Biosciences Corporation, priority 2008, dated 2013)

Chains of the proteins cited; added tags and fusions are not shown. Lines headed by an entry give the natural chain unless they say otherwise; changes in a name come on top.
UniProt Q12809: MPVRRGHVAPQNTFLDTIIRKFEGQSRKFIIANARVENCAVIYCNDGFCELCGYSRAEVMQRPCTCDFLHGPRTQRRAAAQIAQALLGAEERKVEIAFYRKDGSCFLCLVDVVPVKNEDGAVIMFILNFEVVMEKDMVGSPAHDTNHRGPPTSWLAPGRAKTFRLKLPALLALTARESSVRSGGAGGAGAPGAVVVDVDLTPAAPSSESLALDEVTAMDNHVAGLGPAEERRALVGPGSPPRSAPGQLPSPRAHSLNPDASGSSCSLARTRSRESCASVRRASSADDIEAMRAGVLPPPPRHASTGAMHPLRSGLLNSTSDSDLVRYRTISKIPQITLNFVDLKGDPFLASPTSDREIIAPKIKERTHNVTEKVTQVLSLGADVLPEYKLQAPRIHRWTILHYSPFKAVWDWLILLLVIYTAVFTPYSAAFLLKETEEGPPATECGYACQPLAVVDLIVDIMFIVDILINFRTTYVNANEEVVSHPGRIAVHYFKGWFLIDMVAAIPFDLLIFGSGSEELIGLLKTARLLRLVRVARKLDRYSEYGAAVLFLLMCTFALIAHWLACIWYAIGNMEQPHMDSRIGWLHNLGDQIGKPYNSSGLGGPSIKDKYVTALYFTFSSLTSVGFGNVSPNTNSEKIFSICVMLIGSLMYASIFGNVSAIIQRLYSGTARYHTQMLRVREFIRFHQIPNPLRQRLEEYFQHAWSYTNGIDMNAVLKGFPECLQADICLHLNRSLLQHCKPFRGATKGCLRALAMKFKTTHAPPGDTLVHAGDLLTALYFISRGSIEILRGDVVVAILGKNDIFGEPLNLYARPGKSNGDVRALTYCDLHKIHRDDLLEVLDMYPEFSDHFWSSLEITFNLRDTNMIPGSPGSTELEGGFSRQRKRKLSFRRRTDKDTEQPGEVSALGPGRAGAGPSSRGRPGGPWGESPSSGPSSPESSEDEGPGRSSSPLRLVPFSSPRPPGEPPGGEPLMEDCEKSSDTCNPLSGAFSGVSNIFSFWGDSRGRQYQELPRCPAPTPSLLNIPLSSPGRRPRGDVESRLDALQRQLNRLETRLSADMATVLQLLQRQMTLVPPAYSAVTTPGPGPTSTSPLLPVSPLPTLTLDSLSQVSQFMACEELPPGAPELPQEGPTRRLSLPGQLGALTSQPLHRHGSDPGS
UniProt P08183, whole entry: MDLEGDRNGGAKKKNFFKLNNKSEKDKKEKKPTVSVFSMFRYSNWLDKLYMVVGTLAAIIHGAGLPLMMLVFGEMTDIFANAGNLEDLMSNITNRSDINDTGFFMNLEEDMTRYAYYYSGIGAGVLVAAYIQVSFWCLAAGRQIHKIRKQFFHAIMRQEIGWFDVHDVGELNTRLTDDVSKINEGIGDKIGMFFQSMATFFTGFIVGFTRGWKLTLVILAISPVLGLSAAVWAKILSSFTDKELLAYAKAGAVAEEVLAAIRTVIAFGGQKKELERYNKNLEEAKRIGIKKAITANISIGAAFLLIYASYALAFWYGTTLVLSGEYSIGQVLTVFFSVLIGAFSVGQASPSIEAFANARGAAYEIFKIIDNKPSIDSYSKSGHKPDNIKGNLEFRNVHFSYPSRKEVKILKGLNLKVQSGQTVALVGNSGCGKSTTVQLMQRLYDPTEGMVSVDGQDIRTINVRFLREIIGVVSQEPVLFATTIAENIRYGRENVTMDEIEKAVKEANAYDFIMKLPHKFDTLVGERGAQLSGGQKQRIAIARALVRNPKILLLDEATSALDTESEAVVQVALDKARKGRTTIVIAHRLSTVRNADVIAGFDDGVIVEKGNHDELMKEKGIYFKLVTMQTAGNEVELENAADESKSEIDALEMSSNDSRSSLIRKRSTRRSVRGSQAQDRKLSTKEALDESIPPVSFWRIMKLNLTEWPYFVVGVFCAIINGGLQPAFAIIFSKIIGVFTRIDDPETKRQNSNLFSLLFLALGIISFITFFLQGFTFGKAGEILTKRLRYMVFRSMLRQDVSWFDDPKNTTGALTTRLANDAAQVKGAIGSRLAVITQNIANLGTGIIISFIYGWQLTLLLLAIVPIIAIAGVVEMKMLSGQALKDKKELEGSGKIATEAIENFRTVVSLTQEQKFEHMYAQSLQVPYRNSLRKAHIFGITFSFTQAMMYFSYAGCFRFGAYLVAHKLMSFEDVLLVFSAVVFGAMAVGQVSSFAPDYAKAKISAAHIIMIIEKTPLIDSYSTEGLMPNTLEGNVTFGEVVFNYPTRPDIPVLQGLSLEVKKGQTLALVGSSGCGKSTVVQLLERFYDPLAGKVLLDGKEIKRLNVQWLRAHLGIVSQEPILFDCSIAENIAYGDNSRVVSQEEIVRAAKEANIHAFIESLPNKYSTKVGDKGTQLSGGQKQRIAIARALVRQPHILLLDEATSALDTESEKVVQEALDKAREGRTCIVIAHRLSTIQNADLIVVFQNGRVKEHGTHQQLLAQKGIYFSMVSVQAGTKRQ

Assays:
hERG channel = hERG channel (Homo sapiens (Human), UniProt Q12809); settings: 1 μM
P-Glycoprotein = P-Glycoprotein (Homo sapiens (Human), UniProt P08183); assay: Digoxin bidirectional MDR1-MDCK permeability, Compound I-1 as an inhibitor; settings: for efflux ratio at 1 μM: dog, MDCK-MDR1, pH 7.4, Digoxin Assymetry Index
[1] = Table 17, Digoxin 1 μM alone, Std
[2] = Table 17, Digoxin 1 μM alone, Surf.
[3] = preliminary experiment, Digoxin 1 μM alone, Std
[4] = preliminary experiment, Digoxin 1 μM alone, Surf.

| Compound | % Block Trial 1 (hERG channel) [%] | % Block Trial 2 (hERG channel) [%] | Digoxin Mass Bal (AP→BL) (P-Glycoprotein; [1]) [%] | Digoxin Mass Bal (BL→AP) (P-Glycoprotein; [1]) [%] | Digoxin Mass Bal (AP→BL) (P-Glycoprotein; [2]) [%] | Digoxin Mass Bal (BL→AP) (P-Glycoprotein; [2]) [%] | efflux ratio at 1 μM (P-Glycoprotein; [1]) | efflux ratio at 1 μM (P-Glycoprotein; [2]) | efflux ratio at 1 μM (P-Glycoprotein; [3]) | Digoxin Mass Bal (AP→BL) (P-Glycoprotein; [3]) [%] | Digoxin Mass Bal (BL→AP) (P-Glycoprotein; [3]) [%] | Digoxin Mass Bal (AP→BL) (P-Glycoprotein; [4]) [%] | Digoxin Mass Bal (BL→AP) (P-Glycoprotein; [4]) [%] |
| --- | --- | --- | --- | --- | --- | --- | --- | --- | --- | --- | --- | --- | --- |
| COc1cc(N)c(Cl)cc1C(=O)NC1CCN(CCCOc2ccc(F)cc2)CC1OC (stereo not shown) [Cisapride] | >95 | >95 |  |  |  |  |  |  |  |  |  |  |  |
| C[C@H]1O[C@@H](O[C@H]2[C@@H](O)C[C@H](O[C@H]3[C@@H](O)C[C@H](O[C@H]4CC[C@@]5(C)[C@H](CC[C@@H]6[C@@H]5C[C@@H](O)[C@]5(C)[C@@H](C7=CC(=O)OC7)CC[C@]65O)C4)O[C@@H]3C)O[C@@H]2C)C[C@H](O)[C@@H]1O [Digoxin] |  |  | 116 | 98 | 106 | 97 | 3.3 | 2.2 | 83.3 | 122 | 117 | 96 | 94 |
